Results on 1 compound are retold here after PubChem BioAssay AID1439 (NMMLSC, 2008).

Amino acid sequences for entries named in this document (tags omitted).
UniProt P09471, whole entry: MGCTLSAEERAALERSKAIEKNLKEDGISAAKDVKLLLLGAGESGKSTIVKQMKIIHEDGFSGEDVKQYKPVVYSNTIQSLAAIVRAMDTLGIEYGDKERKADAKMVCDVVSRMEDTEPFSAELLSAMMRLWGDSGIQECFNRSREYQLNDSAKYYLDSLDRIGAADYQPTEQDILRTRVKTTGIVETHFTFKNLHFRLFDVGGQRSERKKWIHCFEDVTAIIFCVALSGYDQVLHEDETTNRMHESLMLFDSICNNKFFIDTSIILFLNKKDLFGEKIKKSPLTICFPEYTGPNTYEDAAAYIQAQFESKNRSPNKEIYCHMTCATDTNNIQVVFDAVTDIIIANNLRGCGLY

Molecules are shown by their SMILES. This is a selection; strong and weak results do not stand in their true shares. Records with an inconclusive call do not appear. Active and inactive are the calls of the source. Cut-off read from the data, not from the text of the source: active = binding response below about 49% or above about 150%; inconclusive = no clear call, values can overlap the other calls; inactive = in between.

The assay deals with Guanine nucleotide-binding protein G(o) subunit alpha (Homo sapiens) (UniProt P09471). In words: compounds changing RGS7 association with Galphao – biochemical, multiplexed bead flow cytometry, primary screen (AID 1439).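 Note: fluorescent Galphao held in activated GDP-AlF4 state binding bead-coupled RGS7.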 The settings on record: at 10 µM, actives lie on both sides.
With `O=[N+]([O-])c1cc([N+](=O)[O-])c(Nc2ccccn2)c([N+](=O)[O-])c1`, the binding response (% of control) was inactive: 101%.
